The list shows a part of the results, in another mix than the full data.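 For each line, cells grew in 96-well plates with the test compound present at a single concentration for 48 hours.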 The source made the active and inactive calls. Rule for the calls: active = growth percent below 10; inactive = the rest.
Columns and labels:
Test in all cases: NCI-60 one-dose screen, 48 h (100 = growth as untreated, 0 = no growth, -100 = all killed)
DU-145 prostate = settings: 10 µM unless noted
K-562 leukemia = settings: 10 µM unless noted
MALME-3M melanoma = settings: 10 µM unless noted
MDA-MB-231 breast = settings: 10 µM unless noted
RXF 393 renal = settings: 10 µM unless noted
SF-268 CNS = settings: 10 µM unless noted
SF-295 CNS = settings: 10 µM unless noted
SF-539 CNS = settings: 10 µM unless noted
UACC-257 melanoma = settings: 10 µM unless noted
M14 melanoma = settings: 10 µM unless noted
HCT-15 colon = settings: 10 µM unless noted
HT29 colon = settings: 10 µM unless noted
SNB-75 CNS = settings: 10 µM unless noted
SNB-19 CNS = settings: 10 µM unless noted
U251 CNS = settings: 10 µM unless noted
PC-3 prostate = settings: 10 µM unless noted
SK-MEL-5 melanoma = settings: 10 µM unless noted
UACC-62 melanoma = settings: 10 µM unless noted
SK-MEL-28 melanoma = settings: 10 µM unless noted
LOX IMVI melanoma = settings: 10 µM

Measured: growth

COc1ccc(C2N=C(NN=C(CCl)CCl)SP2(=O)Nc2ncccn2)c(OC)c1 (configuration not stated)
inactive: DU-145 prostate 104% [100 µM] | K-562 leukemia 105% [100 µM] | MALME-3M melanoma 102% [100 µM] | MDA-MB-231 breast 84% [100 µM] | RXF 393 renal 104% [100 µM] | SF-268 CNS 101% [100 µM] | SF-295 CNS 103% [100 µM] | SF-539 CNS 91.4% [100 µM] | UACC-257 melanoma 104% [100 µM] | M14 melanoma 92.9% [100 µM] | HCT-15 colon 107% [100 µM] | HT29 colon 122% [100 µM] | SNB-75 CNS 92.1% [100 µM] | SNB-19 CNS 96.1% [100 µM] | U251 CNS 103% [100 µM] | PC-3 prostate 93.4% [100 µM] | SK-MEL-5 melanoma 102% [100 µM] | UACC-62 melanoma 90.2% [100 µM] | SK-MEL-28 melanoma 102% [100 µM]

ClP1Nc2cncnc2N1 (configuration not stated)
inactive: DU-145 prostate 113% | K-562 leukemia 98.2% | MALME-3M melanoma 106% | MDA-MB-231 breast 104% | RXF 393 renal 130% | SF-268 CNS 108% | SF-295 CNS 106% | SF-539 CNS 101% | UACC-257 melanoma 115% | M14 melanoma 110% | HCT-15 colon 105% | HT29 colon 118% | SNB-75 CNS 117% | SNB-19 CNS 98% | U251 CNS 113% | SK-MEL-5 melanoma 101% | UACC-62 melanoma 101% | SK-MEL-28 melanoma 122%

ClCC1CS1 (configuration not stated)
inactive: DU-145 prostate 103% | K-562 leukemia 102% | MALME-3M melanoma 96.4% | MDA-MB-231 breast 110% | RXF 393 renal 107% | SF-268 CNS 101% | SF-295 CNS 96.7% | SF-539 CNS 107% | UACC-257 melanoma 110% | M14 melanoma 100% | HCT-15 colon 103% | HT29 colon 100% | SNB-75 CNS 88.9% | SNB-19 CNS 108% | U251 CNS 106% | PC-3 prostate 101% | SK-MEL-5 melanoma 102% | UACC-62 melanoma 108% | LOX IMVI melanoma 109% | SK-MEL-28 melanoma 95.3%

NCCSP(=O)(O)O
inactive: DU-145 prostate 111% | K-562 leukemia 132% | MALME-3M melanoma 129% | MDA-MB-231 breast 102% | RXF 393 renal 118% | SF-268 CNS 96.7% | SF-295 CNS 104% | SF-539 CNS 107% | UACC-257 melanoma 106% | M14 melanoma 105% | HCT-15 colon 103% | HT29 colon 104% | SNB-75 CNS 98.5% | SNB-19 CNS 99.7% | U251 CNS 104% | PC-3 prostate 95.6% | UACC-62 melanoma 96.4% | LOX IMVI melanoma 115% | SK-MEL-28 melanoma 112%

CC1CCNP(=O)(N(CCCl)CCCl)O1 (configuration not stated)
inactive: DU-145 prostate 109% | K-562 leukemia 112% | MALME-3M melanoma 108% | MDA-MB-231 breast 93.5% | RXF 393 renal 125% | SF-268 CNS 95% | SF-295 CNS 98.5% | SF-539 CNS 112% | UACC-257 melanoma 65% | M14 melanoma 106% | HCT-15 colon 103% | HT29 colon 105% | SNB-75 CNS 90.3% | SNB-19 CNS 105% | U251 CNS 107% | PC-3 prostate 90.4% | UACC-62 melanoma 102% | LOX IMVI melanoma 101% | SK-MEL-28 melanoma 112%

O=[As](O)(c1ccc(O)cc1)c1ccccc1O
inactive: DU-145 prostate 106% | K-562 leukemia 62.4% | MALME-3M melanoma 93.2% | MDA-MB-231 breast 93.8% | RXF 393 renal 92.9% | SF-268 CNS 99.4% | SF-295 CNS 101% | SF-539 CNS 93% | UACC-257 melanoma 103% | M14 melanoma 94.8% | HCT-15 colon 102% | HT29 colon 97% | SNB-75 CNS 91.4% | SNB-19 CNS 101% | U251 CNS 101% | SK-MEL-5 melanoma 103% | UACC-62 melanoma 94.8% | LOX IMVI melanoma 102% | SK-MEL-28 melanoma 101%

ClCCNCc1ccccc1
inactive: DU-145 prostate 108% | K-562 leukemia 97.2% | MALME-3M melanoma 106% | MDA-MB-231 breast 118% | RXF 393 renal 119% | SF-268 CNS 101% | SF-295 CNS 113% | SF-539 CNS 107% | UACC-257 melanoma 111% | M14 melanoma 104% | HCT-15 colon 106% | HT29 colon 115% | SNB-75 CNS 100% | U251 CNS 104% | PC-3 prostate 94.4% | SK-MEL-5 melanoma 99.9% | UACC-62 melanoma 107% | LOX IMVI melanoma 101% | SK-MEL-28 melanoma 118%

CCCOP(=S)(Nc1nc(N)cc(=O)[nH]1)OCCC
inactive: DU-145 prostate 103% | K-562 leukemia 101% | MALME-3M melanoma 87.2% | MDA-MB-231 breast 99.7% | RXF 393 renal 95.8% | SF-268 CNS 98.5% | SF-295 CNS 98.9% | SF-539 CNS 95.3% | UACC-257 melanoma 78.6% | M14 melanoma 97.8% | HCT-15 colon 95.4% | HT29 colon 107% | SNB-75 CNS 69% | SNB-19 CNS 89.8% | U251 CNS 95.9% | SK-MEL-5 melanoma 97.7% | UACC-62 melanoma 90.3% | LOX IMVI melanoma 96.9% | SK-MEL-28 melanoma 105%

— PubChem BioAssay (NCI)
